Literature values as cited in PMC12655172, “Borylated 5-Membered Ring Iminosugars: Synthesis and Biological Evaluation for Glycosidase Inhibition and Anticancer Properties for Application in Boron Neutron Capture Therapy (BNCT)—Part 2” (Pharmaceuticals, 2025).

Assays:
Conditions in all cases: no reference given; cited from earlier work
[1] = molecular target: α-glucosidase (rat maltase)
[2] = molecular target: α-glucosidase (rat isomaltase)
[3] = molecular target: α-glucosidase (rat sucrase)

In the case of `OCC(CO)N[C@H]1C[C@](O)(CO)[C@@H](O)[C@H](O)[C@H]1O` [voglibose], the IC50 [1] is given as 110 nM, the IC50 [2] is given as 160 nM and the IC50 [3] is given as 70 nM.
